Yeast mating assay B: variants of the scFv Ab-14

Binding partner: SARS-CoV-2 spike HR2 peptide, sequence PDVDLGDISGINAS.

The variants keep the heavy chain, the linker and the frameworks of Ab-14 (scFv order VH, the linker GGGGSGGGGSGGGGS, VL).
VH: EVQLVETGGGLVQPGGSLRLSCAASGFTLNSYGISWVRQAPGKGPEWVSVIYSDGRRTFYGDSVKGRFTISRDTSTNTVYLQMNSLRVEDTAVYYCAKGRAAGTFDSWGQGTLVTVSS
VL: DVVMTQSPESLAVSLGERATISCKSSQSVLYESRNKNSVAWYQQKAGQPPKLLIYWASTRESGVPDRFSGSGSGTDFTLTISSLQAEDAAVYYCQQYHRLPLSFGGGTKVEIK

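The starting antibody came from a phage panning campaign against this peptide. These sequences belong to a second round, designed from the earlier measurements on random variants of the parent. Their group label is 14L_GP_HC (GP: Gaussian process model; HC: hill climbing; a sequence that several methods proposed may carry one label only). In AlphaSeq, yeast of one mating type display the scFv and yeast of the other type display the target. Binding brings cells together so that they mate, and sequencing counts the barcode pairs among the diploids. The ratio of observed to expected reads was calibrated, replicate by replicate, on BCL2-family standards whose Kd was known from biolayer interferometry. There are six technical replicates.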

Variants are written as CDR1, CDR2 and CDR3 of the light chain (limits as in the source). Parent: KSSQSVLYESRNKNSVA, WASTRES, QQYHRLPLS. Numbers give log10(Kd / nM), so 0 is 1 nM and 3 is 1 µM. Smaller is tighter. "n.d." marks a missing value. The strain was present, yet no cells mated with the target were sequenced in that replicate, which points to weak or no binding.

{"CDR-L1": "KVSQSVAYESRTKNSVA", "CDR-L2": "NASTRES", "CDR-L3": "QQYHRLPLS", "log10 Kd (nM) by replicate": "-0.19 / -0.26 / -0.01 / -0.19 / -0.37 / -0.05", "signal with controls": "0 of 18"}
{"CDR-L1": "KSSQSDLYEDRVKNSVA", "CDR-L2": "GAQTRES", "CDR-L3": "QQYHRLPLS", "log10 Kd (nM) by replicate": "0.51 / 0.46 / 0.17 / 0.65 / 0.49 / 0.92", "signal with controls": "2 of 18 (2.95)"}
{"CDR-L1": "KLSLSVLYESRNKNSVA", "CDR-L2": "NASTRES", "CDR-L3": "QQYHRLPLS", "log10 Kd (nM) by replicate": "0.01 / -0.16 / -0.07 / -0.27 / -0.14 / -0.04", "signal with controls": "0 of 18"}
{"CDR-L1": "KSSISYLYESRNKNSVA", "CDR-L2": "AASYRES", "CDR-L3": "QQYHRLPLS", "log10 Kd (nM) by replicate": "0.20 / 0.69 / 0.89 / 0.20 / 0.40 / 0.26", "signal with controls": "2 of 18 (1.94)"}
{"CDR-L1": "HLSGVVLYESRNKNSVA", "CDR-L2": "NASTRES", "CDR-L3": "QQYHRLPLS", "log10 Kd (nM) by replicate": "-0.02 / 0.09 / -0.39 / -0.44 / 0.15 / -0.05", "signal with controls": "0 of 18"}
{"CDR-L1": "KFSQWVLYESRTKNSVA", "CDR-L2": "NASQRES", "CDR-L3": "QQYHRLPLS", "log10 Kd (nM) by replicate": "0.55 / 0.41 / 0.33 / 0.28 / 0.40 / 0.53", "signal with controls": "2 of 18 (2.95)"}
{"CDR-L1": "KVSQSTLYESRNKNSVA", "CDR-L2": "WASTRES", "CDR-L3": "QQYHRLPLS", "log10 Kd (nM) by replicate": "1.63 / 1.20 / 0.65 / 0.62 / 1.01 / 1.42", "signal with controls": "0 of 18"}
{"CDR-L1": "HSSPSVGYESRNKNSVA", "CDR-L2": "NASTRES", "CDR-L3": "QQYHRLPLS", "log10 Kd (nM) by replicate": "n.d. / n.d. / n.d. / n.d. / n.d. / n.d.", "signal with controls": "0 of 18"}
{"CDR-L1": "KSSPVVLYESANKNSVA", "CDR-L2": "NASTRMS", "CDR-L3": "QQYHRLPLS", "log10 Kd (nM) by replicate": "0.32 / 0.18 / 0.10 / -0.06 / 0.04 / 0.24", "signal with controls": "2 of 18 (2.23)"}
{"CDR-L1": "KSLQSVLYESRNKNSVA", "CDR-L2": "HASTRED", "CDR-L3": "QDYHRLPLS", "log10 Kd (nM) by replicate": "0.48 / 0.55 / 0.40 / 0.21 / 0.25 / 0.36", "signal with controls": "1 of 18 (3.30)"}
{"CDR-L1": "KSSISYLYESENKDSVA", "CDR-L2": "EASQRES", "CDR-L3": "QQYHRLPLS", "log10 Kd (nM) by replicate": "0.93 / 1.14 / 1.07 / 0.95 / 0.89 / 1.58", "signal with controls": "0 of 18"}
{"CDR-L1": "KSSMSYLLEKRNKNSVA", "CDR-L2": "EASTRES", "CDR-L3": "QQYHRLPLS", "log10 Kd (nM) by replicate": "0.39 / 0.26 / 0.31 / -0.06 / -0.06 / 0.23", "signal with controls": "2 of 18 (2.32)"}
{"CDR-L1": "KSGQGVLYESRNPNSVA", "CDR-L2": "GASTRES", "CDR-L3": "QQYHRLPLS", "log10 Kd (nM) by replicate": "-0.17 / -0.38 / -0.46 / -0.55 / -0.28 / -0.03", "signal with controls": "0 of 18"}
{"CDR-L1": "KSPQGVLYESRNKNSVA", "CDR-L2": "GASQRES", "CDR-L3": "QQYHRLPLS", "log10 Kd (nM) by replicate": "0.17 / -0.09 / 0.61 / 0.06 / 0.17 / 0.38", "signal with controls": "0 of 18"}
{"CDR-L1": "LSSISYLYESANKNSVA", "CDR-L2": "EASTRES", "CDR-L3": "QQYHRLPLS", "log10 Kd (nM) by replicate": "0.39 / 0.62 / 0.48 / 0.20 / 0.26 / 0.82", "signal with controls": "1 of 18 (3.06)"}
{"CDR-L1": "KSSPSVLYESENKNSVA", "CDR-L2": "NASTRMS", "CDR-L3": "QQYHRLPLS", "log10 Kd (nM) by replicate": "0.04 / 0.41 / -0.59 / 0.61 / -0.61 / 0.19", "signal with controls": "0 of 18"}
{"CDR-L1": "KIGQGVLYESRNWNSVA", "CDR-L2": "GASTRES", "CDR-L3": "QQYHRLPLS", "log10 Kd (nM) by replicate": "-0.01 / -0.04 / -0.20 / -0.22 / -0.38 / -0.13", "signal with controls": "2 of 18 (2.22)"}
{"CDR-L1": "KISQSWNYESRNKNSVA", "CDR-L2": "GASTRES", "CDR-L3": "QQYHRLPLS", "log10 Kd (nM) by replicate": "0.65 / 0.32 / 0.13 / 0.11 / 0.34 / 0.47", "signal with controls": "1 of 18 (2.40)"}
{"CDR-L1": "KLFMSQLYESRNKNSVA", "CDR-L2": "NASTRES", "CDR-L3": "QQYHRLPLS", "log10 Kd (nM) by replicate": "-0.02 / -0.26 / 0.05 / -0.37 / -0.38 / -0.35", "signal with controls": "0 of 18"}
{"CDR-L1": "KQSQSFLNESRNKNSVA", "CDR-L2": "DANTRES", "CDR-L3": "QQYHRLPLS", "log10 Kd (nM) by replicate": "0.78 / 0.69 / 0.44 / 0.05 / 0.51 / 0.42", "signal with controls": "0 of 18"}
{"CDR-L1": "KSSMSYLYESRNKNSVA", "CDR-L2": "EASTREQ", "CDR-L3": "QQYHRLPLS", "log10 Kd (nM) by replicate": "-0.03 / -0.35 / -0.27 / -0.35 / -0.33 / -0.20", "signal with controls": "0 of 18"}
{"CDR-L1": "KSLQSVLYESRNKNSVA", "CDR-L2": "HASTRED", "CDR-L3": "QSYHRLPLS", "log10 Kd (nM) by replicate": "0.44 / 0.68 / 0.51 / 0.46 / 0.52 / 0.73", "signal with controls": "1 of 18 (3.99)"}

The opening 3 entries, copied out:

CDR-L1	CDR-L2	CDR-L3	log10 Kd (nM) by replicate	signal with controls
KVSQSVAYESRTKNSVA	NASTRES	QQYHRLPLS	-0.19 / -0.26 / -0.01 / -0.19 / -0.37 / -0.05	0 of 18
KSSQSDLYEDRVKNSVA	GAQTRES	QQYHRLPLS	0.51 / 0.46 / 0.17 / 0.65 / 0.49 / 0.92	2 of 18 (2.95)
KLSLSVLYESRNKNSVA	NASTRES	QQYHRLPLS	0.01 / -0.16 / -0.07 / -0.27 / -0.14 / -0.04	0 of 18

Of ten entries with the parent sequence, four were seen in most replicates (averages 0.34 to 2.37), three in one and three in none, so single entries are noisy. The authors' rule: three or more of the six replicates give a measured affinity, fewer mean a poor binder. Nonspecific signal, from three strains lacking the peptide, appeared in 4% of pairings of all light chain designs, centred on 2.64 (5% of these signals below 1.59); values are not corrected for it. For each scFv, signals with the empty controls are counted beside the result, with their mean in brackets. The range of this assay differs from that of the first round, and the authors advise against merging the two.

Values reported by Li et al. 2023, doi:10.1038/s41467-023-39022-2 (FLAb copy).